# Test system: monkey
# Assay: Preclinical monkey studies (hypoglycemia and metabolic acidosis)
compound,measurement,setting,value
"CC(C)(CCCCCC(O)CCCCCC(C)(C)C(=O)O)C(=O)O [Bempedoic acid, 8-hydroxy-2,2,14,14 tetramethylpentadecanedioic acid]",Exposures in monkey studies relative to those associated with the 180-mg dose in Phase 1 and 2 clinical studies,monkey studies with hypoglycemia and metabolic acidosis,≥ 17 times
same,reversibility of hypoglycemia,subsequent monkey studies,reversible with discontinuation of dosing and oral glucose administration

# Source: patent US20210361618A1, “TRIPLET COMBINATION FORMULATIONS AND METHODS FOR TREATING OR REDUCING THE RISK OF CARDIOVASCULAR DISEASE” (priority 2017, published 2021)
